Laboratory results: US20150051262A1, “NMDA RECEPTOR MODULATORS AND USES THEREOF” (Northwestern University, priority 2011, published 2015)

How the values were obtained:
[1] = target: NMDA receptor (Rattus norvegicus, UniProt P35439); assay: [^3H] MK-801 binding assay; details: for Efficacy (% Increase in [^3H] MK-801 Binding): best-fit top value, 50 μM glutamate
[2] = system: floating behavior; assay: Porsolt test procedure 1; type: in vivo, Sprague-Dawley rats; details: 1 hr before testing
[3] = target: NMDAR (Rattus norvegicus, UniProt P35439); details: concentration 1 μM
[4] = system: Schaffer collateral-CA 1 synapses; details: concentration 1 uM

| SMILES | Efficacy (% Increase in [^3H] MK-801 Binding) [1] | % Reduction in Floating ([2]; 3 mg/kg, i.v.) | Efficacy (% Change in NMDAR Current from Baseline) [3] | % Reduction in Floating ([2]; 1 mg/kg, p.o.) | Efficacy (% Increase from Vehicle) in LTP [4] | Emax ([1]; read-out: Efficacy (% Increase in [^3H] MK-801 Binding)) |
| --- | --- | --- | --- | --- | --- | --- |
| C[C@@H](O)[C@H](NC(=O)[C@@H]1CCCN1C(=O)[C@@H]1CCCN1C(=O)[C@@H](N)CO)C(N)=O [CM-1, (S)-N-((2S,3R)-1-amino-3-hydroxy-1-oxobutan-2-yl)-1-((S)-1-((S)-2-amino-3-hydroxypropanoyl)pyrrolidine-2-carbonyl)pyrrolidine-2-carboxamide] | 79% | 90% | 70% | – | – | – |
| C[C@@H](O)[C@H](N)C(=O)N1CCC[C@H]1C(=O)N1CCC[C@]1(Cc1ccccc1)C(=O)N[C@H](C(N)=O)[C@@H](C)O [CM-4B, (S)-N-((2S,3R)-1-amino-3-hydroxy-1-oxobutan-2-yl)-1-((S)-1-((2S,3R)-2-amino-3-hydroxybutanoyl)-pyrrolidine-2-carbonyl)-2-benzylpyrrolidine-2-carboxamide] | 12% | – | 10% | 63% | 10% | – |
| C[C@@H](O)[C@H](N)C(=O)N1CCC[C@H]1C(=O)N1CCC[C@@]1(Cc1ccccc1)C(=O)N[C@H](C(N)=O)[C@@H](C)O [CM-4A, (R)-N-((2S,3R)-1-amino-3-hydroxy-1-oxobutan-2-yl)-1-((S)-1-((2S,3R)-2-amino-3-hydroxybutanoyl)pyrrolidine-2-carbonyl)-2-benzylpyrrolidine-2-carboxamide] | – | – | 75% | 84% | 30% | 12% |
| NC(=O)[C@H](CO)NC(=O)[C@@H]1CCCN1C(=O)[C@@H]1CCCN1C(=O)[C@@H](N)CO [CM-3, (S)-N-((S)-1-amino-3-hydroxy-1-oxopropan-2-yl)-1-((S)-1-((S)-2-amino-3-hydroxy-propanoyl)-pyrrolidine-2-carbonyl)-pyrrolidine-2-carboxamide] | 23% | – | – | – | – | – |
